These are literature values, as cited in patent publication US7928189B2, “PCSK9 polypeptide fragment” (Ottawa Health Research Institute, priority 2008, dated 2011).

For this data set, the target named is LDLR EGF-A domain (Homo sapiens, UniProt P01130). To be noted: EGF-A domain of LDLR; cited from earlier work.

On to “D374Y: 'gain of function' variation in the catalytic domain of PCSK9”, for which the “binding to LDLR at the cell surface relative to wild type PCSK9” value is given as 25 ×.
